Measured values from PubChem BioAssay AID485281 (National Center for Advancing Translational Sciences (NCATS), 2010).
The list shows a part of the results, in another mix than the full data. Inconclusive results are not listed. Calls of active or inactive are those of the source. Calls come from the whole dose curve; as a rule, active = well fitted inhibition curve with a large enough effect; inconclusive = small, poorly fitted or top-dose-only effect; inactive = no such curve, though single readings can be large or run the other way.

The chains behind the UniProt entries cited, without tags or fusion partners. Residues count along the entry.
UniProt P02791, 2-175 limits assumed: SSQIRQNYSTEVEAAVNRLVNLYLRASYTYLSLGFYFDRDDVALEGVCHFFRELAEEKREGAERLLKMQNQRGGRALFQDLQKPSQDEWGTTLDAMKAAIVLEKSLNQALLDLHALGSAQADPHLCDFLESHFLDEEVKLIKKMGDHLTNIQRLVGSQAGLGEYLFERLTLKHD

molecular target: Ferritin light chain (Equus caballus) (UniProt P02791); test: qHTS Assay for Identification of Novel General Anesthetics; details: apoferritin/1-aminoanthracene competitive binding, fluorescence; at 77.5 µM (top of the series); note: nearly all actives have a fitted effect of over 20% in size
% is set by controls: 0 for no effect and ±100 for the full control effect.

| Structure (SMILES) | activity change, negative = displacement |
| --- | --- |
| CN(CCCl)CCCl | inactive: -14.1% |
